Literature values, collected in US20060167044A1, “Piperidine derivatives and their use as anti-inflammatory agents” (priority 2004, published 2006).

Amino acid sequences for entries named in this document (tags omitted). A change or cut given only in a name is not applied to a line headed by its entry.
UniProt P32246: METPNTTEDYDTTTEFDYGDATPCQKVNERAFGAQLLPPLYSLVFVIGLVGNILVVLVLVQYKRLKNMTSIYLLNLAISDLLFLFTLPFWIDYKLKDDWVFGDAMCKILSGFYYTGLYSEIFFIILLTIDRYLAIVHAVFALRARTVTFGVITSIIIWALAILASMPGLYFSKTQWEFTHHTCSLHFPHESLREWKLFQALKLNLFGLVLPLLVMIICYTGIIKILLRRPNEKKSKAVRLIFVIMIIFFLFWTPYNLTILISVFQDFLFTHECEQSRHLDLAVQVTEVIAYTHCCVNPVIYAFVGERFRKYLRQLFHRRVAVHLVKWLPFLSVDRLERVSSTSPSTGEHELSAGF

Key:
UUO kidneys = details: mouse, in vivo
[1] = system: EAE model of multiple sclerosis; details: rat, in vivo
[2] = target: CCR1 compared with 28 different GPCR's (Homo sapiens, UniProt P32246)
CCR1 [3] = target: T1, CCR1 (Homo sapiens, UniProt P32246)
CCR1 [4] = target: T1, CCR1; remark: listed apart in the source
[5] = system: heterotopic heart transplant rejection; details: rat, in vivo

C[C@@H]1CN(Cc2ccc(F)cc2)CCN1C(=O)COc1ccc(Cl)cc1NC(N)=O [BX 471]
CCR1 and CCR5 mRNA levels (UUO kidneys): marked reduction | markers of renal fibrosis (interstitial fibroblasts, interstitial volume, mRNA and protein expression for collagen 1) (UUO kidneys): significantly reduced | reduction of interstitial macrophage and lymphocyte infiltrate (UUO kidneys): 40-60% | clinical score [1]: decreased | selectivity for CCR1 compared with 28 different GPCR's [2]: greater than 10,000 fold | functional antagonism (inhibition of CCR1-mediated Ca2+ mobilization, extracellular acidification rate, CD11b expression, leukocyte migration) (CCR1 [3]): potent functional antagonist | displacement of the CCR1 ligands CCL3, CCL5 (RANTES) and CCL7 (MCP-3) (CCR1 [4]): high affinity | firm adhesion of monocytes triggered by CCL5 (RANTES) (monocytes): dose-responsively blocking | efficacy in heart transplant rejection [5]: efficacious | extent of monocytic graft infiltration [5]: significantly reduced | prolonging transplantation rejection, combination versus either agent alone [5]: much more efficacious
